According to patent US7001983B1, “Antipathogenic synthetic peptides and compositions comprising them” (priority 1997, dated 2006):

Test: CD spectroscopy, α-helix content
Assay type: physicochemical
Conditions: CD in PBS
Protocol: (vii) CD Spectroscopy. The CD spectra of the peptides were measured with a Jasco J-500A spectropolarimeter after calibrating the instrument with (+)-10-camphorsulfonic acid. The spectra were scanned at 23° C. in a capped, quartz optical cell with a 0.5 mm path length. Spectra were obtained at wavelengths of 250 to 190 nm. Eight scans were taken for each peptide at a scan rate of 20 nm/min. […] Fractional helicities (Greenfield and Fasman, 1969; Wu et al., 1981) were calculated as follows: [formula] where [θ]222 is the experimentally-observed mean residue ellipticity at 222 nm, and the values for [θ]^0222 and [θ]^100222, which correspond to 0% and 100% helix content at 222 nm, are estimated to be 2000 and 32000 deg·cm^2/dmole,
1.2 Determination of the secondary structure of the peptides.

Pardaxin
α-helix content: ~12%
